Measured values: patent publication US20130123222A1, “Synergistic Anti-Cancer Activity of SR16388 with Anti-Mitotic Drugs” (SRI INTERNATIONAL, INC., priority 2011, published 2013)

System: panel of 48 to 60 cell lines
Experiment: 5×4 combination screen with SR16388, CellTiter-Glo viability; synergy by pattern recognition
Details: in combination with SR16388, 5x4-T1

In the case of `S=P(N1CC1)(N1CC1)N1CC1` [Thiotepa], the “synergy (number of cell lines)” value (pattern recognition, of 60 cell lines incl. no data) is reported as 0 and the “% synergy” value (share of cell lines with data) is reported as 0%.
